Test results taken from patent publication US20060094649A1, “Hla-a1,-a2,-a3,-a24,-b7, and-b44 tumor associated antigen peptides and compositions” (priority 2002, published 2006).

Each compound was assayed on HLA-B44 supertype molecules (assay: HLA-B44 supertype cross-binding). Conditions: not given.
Parameters: species or system human
`CC(C)C[C@H](NC(=O)[C@H](CCC(=O)O)NC(=O)[C@@H](N)CC(N)=O)C(=O)N[C@@H](CO)C(=O)N[C@H](C(=O)N[C@@H](CC(=O)O)C(=O)N[C@@H](Cc1c[nH]cn1)C(=O)N[C@@H](CO)C(=O)N[C@@H](CC(=O)O)C(=O)N1CCC[C@H]1C(=O)N[C@H](C(=O)O)C(C)C)C(C)C` showed a Degeneracy of 3.

Same assay, conditions: number of the six B44 supertype alleles bound
Compound `CC(C)C[C@H](NC(=O)[C@H](CC(C)C)NC(=O)[C@@H](NC(=O)[C@H](CCC(=O)O)NC(=O)[C@H](CCCCN)NC(=O)CNC(=O)[C@H](CCC(=O)O)NC(=O)[C@H](C)N)C(C)C)C(=O)O` has a Degeneracy of 1.
`CC(C)C[C@H](NC(=O)[C@H](CC(C)C)NC(=O)[C@H](CC(C)C)NC(=O)[C@@H](NC(=O)[C@H](CCC(=O)O)NC(=O)[C@H](CCCCN)NC(=O)CNC(=O)[C@H](CCC(=O)O)NC(=O)[C@H](C)N)C(C)C)C(=O)O` was tested, and the Degeneracy was 6.
For `CC(C)C[C@H](NC(=O)[C@H](CC(C)C)NC(=O)[C@@H](NC(=O)[C@H](CCC(=O)O)NC(=O)[C@H](CCCCN)NC(=O)CNC(=O)[C@H](CCC(=O)O)NC(=O)[C@H](C)N)C(C)C)C(=O)N[C@@H](CC(C)C)C(=O)N[C@H](C(=O)O)C(C)C`, the Degeneracy was 4.
Work on `CC[C@H](C)[C@H](NC(=O)[C@H](CO)NC(=O)[C@@H]1CCCN1C(=O)[C@H](CCCCN)NC(=O)[C@@H]1CCCN1C(=O)[C@H](CC(C)C)NC(=O)[C@H](CCC(=O)O)NC(=O)[C@H](C)N)C(=O)O` yielded a Degeneracy of 2.
`CC[C@H](C)[C@H](NC(=O)[C@H](CCC(=O)O)NC(=O)[C@@H]1CCCN1C(=O)[C@H](CCC(=O)O)NC(=O)[C@@H](N)CS)C(=O)N[C@@H](CCC(N)=O)C(=O)N[C@@H](CC(N)=O)C(=O)N[C@H](C(=O)N[C@H](C(=O)O)[C@@H](C)O)[C@@H](C)O` was tested, and the Degeneracy was 1.
`CC[C@H](C)[C@H](NC(=O)[C@H](CCC(=O)O)NC(=O)[C@@H]1CCCN1C(=O)[C@H](CCC(=O)O)NC(=O)[C@@H](N)CS)C(=O)N[C@@H](CCC(N)=O)C(=O)N[C@@H](CC(N)=O)C(=O)N[C@H](C(=O)N[C@H](C(=O)N[C@@H](Cc1ccc(O)cc1)C(=O)N[C@@H](CC(C)C)C(=O)O)[C@@H](C)O)[C@@H](C)O` showed a Degeneracy of 3.
In the case of `CC[C@H](C)[C@H](NC(=O)[C@H](CCC(=O)O)NC(=O)[C@@H]1CCCN1C(=O)[C@H](CCC(=O)O)NC(=O)[C@@H](N)CS)C(=O)N[C@@H](CCC(N)=O)C(=O)N[C@@H](CC(N)=O)C(=O)N[C@H](C(=O)N[C@H](C(=O)N[C@@H](Cc1ccc(O)cc1)C(=O)N[C@@H](CC(C)C)C(=O)N[C@@H](Cc1c[nH]c2ccccc12)C(=O)N[C@@H](Cc1c[nH]c2ccccc12)C(=O)O)[C@@H](C)O)[C@@H](C)O`, the Degeneracy is reported as 2.
In the case of `C[C@H](NC(=O)[C@H](CC(=O)O)NC(=O)[C@H](CCC(N)=O)NC(=O)[C@@H](NC(=O)[C@H](CCC(=O)O)NC(=O)[C@@H]1CCCN1C(=O)[C@H](CCC(=O)O)NC(=O)[C@@H](N)CS)[C@@H](C)O)C(=O)N[C@H](C(=O)O)[C@@H](C)O`, the Degeneracy is reported as 3.
Compound `CC(C)[C@H](NC(=O)[C@@H]1CCCN1C(=O)[C@H](CC(N)=O)NC(=O)[C@H](CCC(N)=O)NC(=O)[C@@H](NC(=O)[C@H](CCC(=O)O)NC(=O)[C@@H](N)CS)[C@@H](C)O)C(=O)N[C@@H](CO)C(=O)N[C@@H](C)C(=O)O` has a Degeneracy of 4.
`CC(C)C[C@H](NC(=O)[C@H](CC(N)=O)NC(=O)[C@H](CCC(=O)O)NC(=O)CN)C(=O)N[C@@H](CC(N)=O)C(=O)N[C@@H](CC(C)C)C(=O)N[C@@H](CO)C(=O)N[C@@H](CS)C(=O)N[C@@H](Cc1c[nH]cn1)C(=O)N[C@@H](C)C(=O)O` was tested, and the Degeneracy was 3.
For `CC(C)C[C@H](NC(=O)[C@H](CC(N)=O)NC(=O)[C@H](CCC(=O)O)NC(=O)CN)C(=O)N[C@@H](CC(N)=O)C(=O)N[C@@H](CC(C)C)C(=O)N[C@@H](CO)C(=O)N[C@@H](CS)C(=O)N[C@@H](Cc1c[nH]cn1)C(=O)N[C@@H](C)C(=O)N[C@@H](C)C(=O)O`, the Degeneracy was 3.
`CC[C@H](C)[C@H](NC(=O)[C@H](CCC(N)=O)NC(=O)[C@H](CCCNC(=N)N)NC(=O)[C@H](CC(N)=O)NC(=O)CNC(=O)[C@H](CC(=O)O)NC(=O)[C@@H](NC(=O)[C@H](CCCNC(=N)N)NC(=O)[C@H](CCC(=O)O)NC(=O)CN)C(C)C)C(=O)O` was tested, and the Degeneracy was 2.
With `CC[C@H](C)[C@H](N)C(=O)N[C@@H](CCC(=O)O)C(=O)N[C@@H](CO)C(=O)N[C@H](C(=O)N1CCC[C@H]1C(=O)N[C@@H](Cc1ccccc1)C(=O)N[C@@H](CC(N)=O)C(=O)N[C@H](C(=O)N[C@@H](C)C(=O)N[C@@H](CCC(=O)O)C(=O)NCC(=O)O)C(C)C)[C@@H](C)O` the Degeneracy was 5.
`CC(C)C[C@H](NC(=O)[C@H](CC(N)=O)NC(=O)[C@H](Cc1c[nH]cn1)NC(=O)[C@@H](NC(=O)[C@H](CC(C)C)NC(=O)[C@H](CC(C)C)NC(=O)[C@H](CC(C)C)NC(=O)[C@@H](NC(=O)[C@H](CCC(=O)O)NC(=O)[C@@H](N)CCCCN)C(C)C)C(C)C)C(=O)O` gave a Degeneracy of 4.
Work on `CSCC[C@H](N)C(=O)N[C@@H](CCC(=O)O)C(=O)N[C@@H](CO)C(=O)N1CCC[C@H]1C(=O)N[C@@H](CO)C(=O)N[C@@H](C)C(=O)N1CCC[C@H]1C(=O)N1CCC[C@H]1C(=O)N[C@@H](Cc1c[nH]cn1)C(=O)N[C@@H](CCCNC(=N)N)C(=O)N[C@@H](Cc1c[nH]c2ccccc12)C(=O)O` yielded a Degeneracy of 4.
`CC(C)[C@H](NC(=O)[C@H](CCCNC(=N)N)NC(=O)[C@H](Cc1ccccc1)NC(=O)[C@H](CCC(N)=O)NC(=O)CNC(=O)[C@@H](NC(=O)[C@H](C)NC(=O)[C@H](CCC(=O)O)NC(=O)[C@H](CCC(=O)O)NC(=O)[C@@H](N)CC(N)=O)[C@@H](C)O)C(=O)N[C@@H](Cc1ccc(O)cc1)C(=O)O` was tested, and the Degeneracy was 3.
With `CC(C)C[C@H](NC(=O)[C@H](Cc1ccc(O)cc1)NC(=O)[C@@H](NC(=O)[C@@H](NC(=O)[C@H](CC(N)=O)NC(=O)[C@H](CCC(N)=O)NC(=O)[C@H](C)NC(=O)[C@H](CCC(=O)O)NC(=O)[C@@H]1CCCN1)[C@@H](C)O)[C@@H](C)O)C(=O)N[C@@H](Cc1c[nH]c2ccccc12)C(=O)N[C@@H](Cc1c[nH]c2ccccc12)C(=O)O` the Degeneracy was 3.
`CC[C@H](C)[C@H](NC(=O)[C@H](CCC(=O)O)NC(=O)[C@@H]1CCCN1)C(=O)N[C@@H](CCC(N)=O)C(=O)N[C@@H](CC(N)=O)C(=O)N[C@H](C(=O)N[C@H](C(=O)N[C@@H](Cc1ccc(O)cc1)C(=O)N[C@@H](CC(C)C)C(=O)O)[C@@H](C)O)[C@@H](C)O` showed a Degeneracy of 2.
`CC[C@H](C)[C@H](NC(=O)[C@H](CCC(=O)O)NC(=O)[C@@H]1CCCN1)C(=O)N[C@@H](CCC(N)=O)C(=O)N[C@@H](CC(N)=O)C(=O)N[C@H](C(=O)N[C@H](C(=O)N[C@@H](Cc1ccc(O)cc1)C(=O)N[C@@H](CC(C)C)C(=O)N[C@@H](Cc1c[nH]c2ccccc12)C(=O)N[C@@H](Cc1c[nH]c2ccccc12)C(=O)O)[C@@H](C)O)[C@@H](C)O` showed a Degeneracy of 3.
`CC[C@H](C)[C@H](NC(=O)[C@H](CCC(=O)O)NC(=O)[C@@H]1CCCN1)C(=O)N[C@@H](CCC(N)=O)C(=O)N[C@@H](CC(N)=O)C(=O)N[C@H](C(=O)N[C@H](C(=O)N[C@@H](Cc1ccc(O)cc1)C(=O)N[C@@H](CC(C)C)C(=O)N[C@@H](Cc1c[nH]c2ccccc12)C(=O)N[C@@H](Cc1c[nH]c2ccccc12)C(=O)N[C@H](C(=O)O)C(C)C)[C@@H](C)O)[C@@H](C)O` showed a Degeneracy of 3.
Compound `CC[C@H](C)[C@H](NC(=O)[C@H](CC(N)=O)NC(=O)[C@@H]1CCCN1C(=O)[C@@H](NC(=O)[C@H](Cc1ccccc1)NC(=O)[C@H](CC(C)C)NC(=O)[C@H](CCC(=O)O)NC(=O)[C@@H](N)CCC(N)=O)[C@@H](C)CC)C(=O)O` has a Degeneracy of 3.
Compound `CC[C@H](C)[C@H](NC(=O)[C@H](CC(N)=O)NC(=O)[C@@H]1CCCN1C(=O)[C@@H](NC(=O)[C@H](Cc1ccccc1)NC(=O)[C@H](CC(C)C)NC(=O)[C@H](CCC(=O)O)NC(=O)[C@@H](N)CCC(N)=O)[C@@H](C)CC)C(=O)N[C@H](C(=O)O)[C@@H](C)O` has a Degeneracy of 4.
`CC[C@H](C)[C@H](NC(=O)[C@H](CC(N)=O)NC(=O)[C@H](CO)NC(=O)[C@@H](NC(=O)[C@H](Cc1ccccc1)NC(=O)[C@H](CC(C)C)NC(=O)[C@H](CCC(=O)O)NC(=O)[C@@H](N)CCC(N)=O)[C@@H](C)CC)C(=O)O` gave a Degeneracy of 1.
`CC[C@H](C)[C@H](NC(=O)[C@H](Cc1ccccc1)NC(=O)[C@H](CC(C)C)NC(=O)[C@H](CCC(=O)O)NC(=O)[C@@H](N)CCC(N)=O)C(=O)N[C@@H](CO)C(=O)N[C@@H](CC(N)=O)C(=O)N[C@H](C(=O)N[C@H](C(=O)O)[C@@H](C)O)[C@@H](C)CC` showed a Degeneracy of 3.
Work on `CC[C@H](C)[C@H](NC(=O)[C@H](CCC(=O)O)NC(=O)[C@@H](N)CCCNC(=N)N)C(=O)N[C@H](C(=O)N[C@@H](Cc1ccc(O)cc1)C(=O)N1CCC[C@H]1C(=O)N[C@@H](CC(N)=O)C(=O)N[C@@H](C)C(=O)N[C@@H](CO)C(=O)N[C@@H](CC(C)C)C(=O)O)[C@@H](C)CC` yielded a Degeneracy of 4.
With `CC[C@H](C)[C@H](NC(=O)[C@H](CCC(=O)O)NC(=O)[C@@H](N)CCCNC(=N)N)C(=O)N[C@H](C(=O)N[C@@H](Cc1ccc(O)cc1)C(=O)N1CCC[C@H]1C(=O)N[C@@H](CC(N)=O)C(=O)N[C@@H](C)C(=O)N[C@@H](CO)C(=O)N[C@@H](CC(C)C)C(=O)N[C@@H](CC(C)C)C(=O)O)[C@@H](C)CC` the Degeneracy was 4.
`CC(C)C[C@H](NC(=O)CNC(=O)[C@H](CO)NC(=O)[C@H](CC(N)=O)NC(=O)[C@H](CCCCN)NC(=O)[C@H](CCC(=O)O)NC(=O)[C@@H](N)[C@@H](C)O)C(=O)N[C@@H](Cc1ccc(O)cc1)C(=O)O` showed a Degeneracy of 1.
`CC(C)C[C@H](NC(=O)CNC(=O)[C@H](CO)NC(=O)[C@H](CC(N)=O)NC(=O)[C@H](CCCCN)NC(=O)[C@H](CCC(=O)O)NC(=O)[C@@H](N)[C@@H](C)O)C(=O)N[C@@H](Cc1ccc(O)cc1)C(=O)N[C@H](C(=O)O)[C@@H](C)O` showed a Degeneracy of 1.
`CC[C@H](C)[C@H](NC(=O)CNC(=O)[C@H](CS)NC(=O)[C@H](CCC(=O)O)NC(=O)[C@@H](N)Cc1ccc(O)cc1)C(=O)N[C@@H](CCC(N)=O)C(=O)N[C@@H](CC(N)=O)C(=O)N[C@@H](CCC(=O)O)C(=O)N[C@@H](CC(C)C)C(=O)O` gave a Degeneracy of 5.
Compound `CC[C@H](C)[C@H](NC(=O)CNC(=O)[C@H](CS)NC(=O)[C@H](CCC(=O)O)NC(=O)[C@@H](N)Cc1ccc(O)cc1)C(=O)N[C@@H](CCC(N)=O)C(=O)N[C@@H](CC(N)=O)C(=O)N[C@@H](CCC(=O)O)C(=O)N[C@@H](CC(C)C)C(=O)N[C@@H](CO)C(=O)N[C@H](C(=O)O)C(C)C` has a Degeneracy of 5.
